{"sequences": {"note": "The chains behind the UniProt entries cited, without tags or fusion partners. Where a name states a change or a piece, a line headed by the entry shows the natural chain unless it says otherwise.", "UniProt P22894": "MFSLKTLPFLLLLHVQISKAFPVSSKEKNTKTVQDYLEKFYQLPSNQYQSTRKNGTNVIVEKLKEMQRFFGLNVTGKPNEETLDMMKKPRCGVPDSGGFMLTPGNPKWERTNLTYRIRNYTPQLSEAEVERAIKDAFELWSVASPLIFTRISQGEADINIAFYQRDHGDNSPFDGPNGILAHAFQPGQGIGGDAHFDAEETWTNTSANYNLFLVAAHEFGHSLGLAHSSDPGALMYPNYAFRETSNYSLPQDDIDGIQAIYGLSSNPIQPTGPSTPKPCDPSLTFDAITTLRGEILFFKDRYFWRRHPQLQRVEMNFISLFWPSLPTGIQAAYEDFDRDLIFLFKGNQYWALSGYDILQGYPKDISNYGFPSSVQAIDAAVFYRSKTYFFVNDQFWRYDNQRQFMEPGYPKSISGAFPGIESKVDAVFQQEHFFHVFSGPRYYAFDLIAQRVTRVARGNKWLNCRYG"}, "source": "ChEMBL document CHEMBL1132204", "about": "“Design and synthesis of phosphinamide-based hydroxamic acids as inhibitors of matrix metalloproteinases” (J Med Chem, 1999)", "biological_target": "Neutrophil collagenase (Homo sapiens, UniProt P22894)", "assay": "Inhibition of human Matrix metalloprotease-8"}
{"molecule": "COc1ccc(S(=O)(=O)N(Cc2cccnc2)[C@@H](C(=O)NO)C(C)C)cc1", "note": "[CGS-27023A]", "values": [{"measurement": "IC50", "result": 4.4, "unit": "nM"}]}
